The chains behind the UniProt entries cited, without tags or fusion partners. Where a name states a change or a piece, a line headed by the entry shows the natural chain unless it says otherwise.
UniProt P11229: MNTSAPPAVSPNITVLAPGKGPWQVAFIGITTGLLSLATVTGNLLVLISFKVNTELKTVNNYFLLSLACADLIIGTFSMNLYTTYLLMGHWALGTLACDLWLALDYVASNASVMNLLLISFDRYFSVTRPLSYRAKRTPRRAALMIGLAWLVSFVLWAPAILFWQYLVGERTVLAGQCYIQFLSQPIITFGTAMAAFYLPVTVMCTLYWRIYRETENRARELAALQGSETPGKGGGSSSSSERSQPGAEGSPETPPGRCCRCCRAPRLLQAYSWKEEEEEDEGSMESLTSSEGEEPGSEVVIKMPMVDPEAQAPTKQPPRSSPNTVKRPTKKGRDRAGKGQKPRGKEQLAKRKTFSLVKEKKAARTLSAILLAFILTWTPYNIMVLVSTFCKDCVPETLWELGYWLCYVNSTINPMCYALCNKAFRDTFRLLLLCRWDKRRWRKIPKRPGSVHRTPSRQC
UniProt P25929, whole entry: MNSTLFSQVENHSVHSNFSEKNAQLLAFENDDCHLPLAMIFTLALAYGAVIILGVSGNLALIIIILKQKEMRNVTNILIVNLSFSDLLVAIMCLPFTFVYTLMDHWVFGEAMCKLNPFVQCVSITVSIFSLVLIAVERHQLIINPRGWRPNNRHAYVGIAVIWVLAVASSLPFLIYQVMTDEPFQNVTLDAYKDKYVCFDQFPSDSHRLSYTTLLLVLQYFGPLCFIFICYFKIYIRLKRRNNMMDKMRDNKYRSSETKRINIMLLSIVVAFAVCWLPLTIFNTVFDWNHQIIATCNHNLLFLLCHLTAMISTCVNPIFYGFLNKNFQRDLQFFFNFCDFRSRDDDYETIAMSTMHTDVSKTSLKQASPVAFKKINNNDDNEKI

According to article PMC9667534, “Insertion of Nanoluc into the Extracellular Loops as a Complementary Method To Establish BRET-Based Binding Assays for GPCRs” (ACS Pharmacology & Translational Science, 2022):

What was measured:
Nluc-M1R(G176) = Nluc-M1R(G176) (Homo sapiens, UniProt P11229); test: biochemical
M1R = settings: different expression systems, ref 54-67 (per cell); cited from earlier work
Nluc-Y1R(Q291) = Nluc-Y1R(Q291) (Homo sapiens, UniProt P25929); test: BRET competition binding with fluorescent ligand 1; settings: 1 c = 0.5 nM

Compound: C=CC[N@@+]12CC[C@@]34c5ccccc5N5/C=C6/[C@H]7C[C@H]8[C@@]9(CC[N@@+]8(CC=C)C/C7=C/CO)c7ccccc7N(/C=C(/[C@@H](C[C@@H]31)/C(=C\CO)C2)[C@H]54)[C@@H]69 [alcuronium, Alcuronium]
- Ki (Nluc-M1R(G176)): 10.2 µM

Compound: N-methyl scopolamine [NMS]
- reference values (literature) (M1R): 9.49–10.22[55],[62],[66]

Compound: porcine neuropeptide Y [pNPY]
- displacement of fluorescent tracer 1 (Nluc-Y1R(Q291)): not able to displace the fluorescent tracer
